Data on one compound can be found in patent US20040127518A1, “Modulation of anxiety through blockade of anandamide hydrolysis” (priority 2002, published 2004).

Sequences of proteins named here, by UniProt entry; tags and fusion partners are left off.
UniProt P97612, whole entry: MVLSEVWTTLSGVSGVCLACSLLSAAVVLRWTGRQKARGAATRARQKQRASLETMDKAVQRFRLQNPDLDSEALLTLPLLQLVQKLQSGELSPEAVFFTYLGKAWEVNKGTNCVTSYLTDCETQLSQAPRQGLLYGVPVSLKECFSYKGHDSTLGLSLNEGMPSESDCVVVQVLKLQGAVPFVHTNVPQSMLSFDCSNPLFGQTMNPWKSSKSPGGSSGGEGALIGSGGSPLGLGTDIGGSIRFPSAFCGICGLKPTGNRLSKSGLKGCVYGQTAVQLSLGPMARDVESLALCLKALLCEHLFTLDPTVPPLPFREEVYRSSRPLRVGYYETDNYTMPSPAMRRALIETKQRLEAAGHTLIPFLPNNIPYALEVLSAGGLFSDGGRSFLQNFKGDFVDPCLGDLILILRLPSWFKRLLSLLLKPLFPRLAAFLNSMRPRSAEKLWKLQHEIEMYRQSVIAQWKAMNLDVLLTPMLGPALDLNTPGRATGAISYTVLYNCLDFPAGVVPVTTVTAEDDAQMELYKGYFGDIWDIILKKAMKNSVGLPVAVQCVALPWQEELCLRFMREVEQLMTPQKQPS
UniProt O42275, whole entry: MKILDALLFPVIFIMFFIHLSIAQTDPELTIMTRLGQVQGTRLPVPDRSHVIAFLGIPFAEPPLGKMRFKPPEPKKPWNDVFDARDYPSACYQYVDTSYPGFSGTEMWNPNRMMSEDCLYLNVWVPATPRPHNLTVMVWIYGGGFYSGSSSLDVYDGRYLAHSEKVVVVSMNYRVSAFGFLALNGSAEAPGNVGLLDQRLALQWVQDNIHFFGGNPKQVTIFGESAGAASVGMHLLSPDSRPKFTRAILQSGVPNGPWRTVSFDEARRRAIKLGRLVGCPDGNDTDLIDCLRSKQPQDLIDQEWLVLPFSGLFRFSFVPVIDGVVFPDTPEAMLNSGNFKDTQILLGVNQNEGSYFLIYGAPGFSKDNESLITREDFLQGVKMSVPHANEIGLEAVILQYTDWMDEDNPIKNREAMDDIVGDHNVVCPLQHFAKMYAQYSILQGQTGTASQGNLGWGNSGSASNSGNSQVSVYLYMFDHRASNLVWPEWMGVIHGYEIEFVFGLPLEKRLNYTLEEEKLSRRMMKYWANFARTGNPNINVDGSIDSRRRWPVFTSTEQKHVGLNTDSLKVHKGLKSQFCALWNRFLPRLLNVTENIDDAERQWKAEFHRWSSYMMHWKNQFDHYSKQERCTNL

One experiment has as its target FAAH (Rattus norvegicus, UniProt P97612). The settings on record: read-out: Amidohydrolase IC50; Table 3.
Experiment [1] addresses electric eel acetylcholinesterase (Electrophorus electricus, UniProt O42275). The settings on record: read-out: Cholinesterase IC50, Table 3.

A word on the IC50: it is the concentration that inhibits the measured activity by half. On to `CCNC(=O)Oc1ccc(C)cc1`, for which the IC50 (at FAAH; in experiment [1]) was more than 30 µM each time.
